Assay results: patent publication US10548994B1, “Control of chronic neuropathic pain and allodynia” (STC.UNM, priority 2013, dated 2020)

Tested on: interleukin-12 (IL-12)
Settings: in vivo

elevations in pro-inflammatory cytokine interleukin-12 (IL-12): does not lead to elevations
Substance: poly(lactic-co-glycolic acid) [PLGA]
